Data: ChEMBL document CHEMBL1773008 (ACS Med Chem Lett, 2010)

Amino acid sequences for entries named in this document (tags omitted).
UniProt P08238, whole entry: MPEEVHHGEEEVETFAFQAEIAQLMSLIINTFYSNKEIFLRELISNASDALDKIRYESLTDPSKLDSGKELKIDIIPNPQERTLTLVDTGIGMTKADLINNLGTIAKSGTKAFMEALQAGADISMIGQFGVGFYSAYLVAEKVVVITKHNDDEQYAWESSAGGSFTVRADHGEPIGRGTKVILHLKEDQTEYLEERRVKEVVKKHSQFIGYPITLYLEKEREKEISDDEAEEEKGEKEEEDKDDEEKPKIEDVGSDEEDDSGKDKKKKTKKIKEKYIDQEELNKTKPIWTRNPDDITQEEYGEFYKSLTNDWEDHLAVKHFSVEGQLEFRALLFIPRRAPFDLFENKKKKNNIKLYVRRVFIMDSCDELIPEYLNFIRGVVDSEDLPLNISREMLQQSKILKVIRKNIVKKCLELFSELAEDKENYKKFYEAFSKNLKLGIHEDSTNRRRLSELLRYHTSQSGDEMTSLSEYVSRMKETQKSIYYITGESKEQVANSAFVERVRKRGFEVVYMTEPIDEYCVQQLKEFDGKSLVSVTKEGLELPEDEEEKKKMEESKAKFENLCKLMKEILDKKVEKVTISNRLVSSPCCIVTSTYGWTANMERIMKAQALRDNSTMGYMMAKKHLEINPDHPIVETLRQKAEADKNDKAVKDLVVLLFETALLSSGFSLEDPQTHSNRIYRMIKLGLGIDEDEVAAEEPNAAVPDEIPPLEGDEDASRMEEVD

Molecular target: Heat shock protein HSP 90-beta (Homo sapiens) (UniProt P08238)
Test: Binding affinity at Hsp90 C-terminal region in human SKBr3 cells
Type: cell-based

Activity: 700 µM
Structure (SMILES): CO[C@@H]1[C@@H](OC(N)=O)[C@@H](O)[C@H](Oc2ccc3c(O)c(NC(=O)c4ccc(O)c(CC=C(C)C)c4)c(=O)oc3c2C)OC1(C)C
